From patent US9878046B2, “Adverse side-effects associated with administration of an anti-hyaluronan agent and methods for ameliorating or preventing the side-effects” (Halozyme, Inc., priority 2010, dated 2018) come the findings set out here.

The conditions of this series: IV twice weekly 0.2, 2.0 or 10.5 mg/kg/dose, 4 weeks.

B1: PEGPH20 (protein)
chain: LNFRAPPVIPNVPFLWAWNAPSEFCLGKFDEPLDMSLFSFIGSPRINATGQGVTIFYVDRLGYYPYIDSITGVTVNGGIPQKISLQDHLDKAKKDITFYMPVDNLGMAVIDWEEWRPTWARNWKPKDVYKNRSIELVQQQNVQLSLTEATEKAKQEFEKAGKDFLVETIKLGKLLRPNHLWGYYLFPDCYNHHYKKPGYNGSCFNVEIKRNDDLSWLWNESTALYPSIYLNTQQSPVAATLYVRNRVREAIRVSKIPDAKSPLPVFAYTRIVFTDQVLKFLSQDELVYTFGETVALGASGIVIWGTLSIMRSMKSCLLLDNYMETILNPYIINVTLAAKMCSQVLCQEQGVCIRKNWNSSDYLHLNPDNFAIQLEKGGKFTVRGKPTLEDLEQFSEKFYCSCYSTLSCKEKADVKDTDAVDVCIADGVCIDAFLKPPMETEEPQIFY
As for B1, the “tolerability of twice-weekly IV administration” value was “well tolerated”.
